Legend:
[1] = molecular target: GSK3α TYR 279 (Homo sapiens (Human), UniProt P49840); experiment: GSK-3α p-TYR inhibition assay (western blotting of Jurkat cells); conditions: read-out: GSK3a pTYR 279: IC50, compound incubated o/n, western blot
[2] = molecular target: GSK3β TYR 216 (Homo sapiens (Human), UniProt P49841); experiment: GSK3β p-TYR inhibition assay (western blotting of Jurkat cells); conditions: read-out: GSK3b pTYR 216: IC50, compound incubated o/n, western blot
[3] = system: β-catenin dependent TCF/LEF transcriptional activity; experiment: β-catenin stabilization protocol (β-lactamase reporter assay in Jurkat cells); conditions: read-out: Beta Catenin IC50, 460/530 ratio, 50% of the maximum effect
Source text: GSK-3 phosphorylation of β-catenin targets it to the proteosome for degradation. Inhibition of GSK-3 results in accumulation of β-catenin in the cytosol of cells which through interaction with the transcription factor TCF/LEF translocates to the nucleus and drives the transcription of Wnt-dependent genes. The assay is designed to determine the level of β-catenin dependent TCF/LEF transcriptional activity in a quantitative manner through the use of a β-lactamase reporter assay in Jurkat cells dosed with a compound.
Jurkat β-catenin cells are starved overnight in assay media (1% FBS, 1× Penstrep, RPMI) in the flask. The next day Jurkat β-catenin cells are seeded in 96 well flat bottom plates at a density of 50,000 cells/well in assay media in a volume of 100 ul. The compound is added to the well at a final DMSO concentration of 0.75% and incubated at 37° C. o/n. The next day, 20 uL of 6× CCF4 dye is added to the wells and incubated at room temperature for 1-2 hours. Plates are read on the Cytofluor 4000 series multiwell plate reader and the 460/530 ratio is determined. The GSK-3 IC50 for induction of β-catenin is determined by plotting the 460/530 ratio against the concentration of compound (Log scale) and using the equation of the slope to calculate the point at which the ratio is 50% of the maximum effect.

Amino acid sequences for entries named in this document (tags omitted).
UniProt P49840, whole entry: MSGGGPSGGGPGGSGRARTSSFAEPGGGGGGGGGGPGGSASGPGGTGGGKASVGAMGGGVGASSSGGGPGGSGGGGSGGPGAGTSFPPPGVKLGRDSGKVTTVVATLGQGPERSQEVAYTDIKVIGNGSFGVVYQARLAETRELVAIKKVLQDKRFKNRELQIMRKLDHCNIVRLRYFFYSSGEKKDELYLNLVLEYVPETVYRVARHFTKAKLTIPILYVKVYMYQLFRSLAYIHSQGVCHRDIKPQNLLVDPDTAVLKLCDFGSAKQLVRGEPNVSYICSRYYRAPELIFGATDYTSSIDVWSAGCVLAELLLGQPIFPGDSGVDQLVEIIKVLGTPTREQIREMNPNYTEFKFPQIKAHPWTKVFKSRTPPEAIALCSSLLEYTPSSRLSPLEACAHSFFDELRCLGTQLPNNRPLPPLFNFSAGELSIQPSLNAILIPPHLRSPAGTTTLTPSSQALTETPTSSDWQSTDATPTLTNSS
UniProt P49841, whole entry: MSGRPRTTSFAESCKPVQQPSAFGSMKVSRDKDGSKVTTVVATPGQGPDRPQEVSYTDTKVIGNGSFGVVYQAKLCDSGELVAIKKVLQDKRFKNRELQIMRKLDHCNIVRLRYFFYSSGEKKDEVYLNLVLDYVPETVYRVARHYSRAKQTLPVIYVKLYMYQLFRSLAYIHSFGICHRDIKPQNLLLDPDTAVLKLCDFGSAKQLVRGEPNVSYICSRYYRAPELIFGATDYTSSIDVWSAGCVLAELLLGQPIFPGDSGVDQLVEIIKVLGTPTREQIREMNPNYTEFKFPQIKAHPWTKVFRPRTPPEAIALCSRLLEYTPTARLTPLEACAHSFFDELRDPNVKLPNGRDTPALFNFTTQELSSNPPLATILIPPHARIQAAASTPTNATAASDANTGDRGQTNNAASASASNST

SMILES | IC50 [1] [nM] | IC50 [2] [nM] | IC50 [3] [nM]
Cc1nc(C2CCCCCC2)nc(Nc2n[nH]c3ncc(F)cc23)c1C | 3 | 83 | 3700
Cc1cc(Nc2n[nH]c3ncc(F)cc23)nc(C23CC4CC(CC(C4)C2)C3)n1 | 2 | 20 | 3320

From patent US8664219B2, “Aminopyrimidines useful as inhibitors of protein kinases” (Vertex Pharmaceuticals Incorporated, priority 2007, dated 2014)
